# Properties, as collected for the OPERA models

Values as listed in the OPERA 2.9 repository of K. Mansouri.

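The OPERA project collected these measurements from public sources as training and test data for property models. One number stands for a compound and property, with no spread given. Method and conditions are not stated for these values. A value may pool stereoisomers or salt forms, and the file does not say which form was measured. Unmarked limits or estimates from the upstream databases cannot be ruled out.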

The melting point is given in degrees Celsius.
The boiling point refers to atmospheric pressure (760 mmHg), by the definition of the set.
logP is the log10 of the octanol-water partition coefficient; higher is more lipophilic.
Solubility in water is on a log10 molar scale (set defined at 25 °C).
Vapor pressures (log10 mmHg) refer to near room temperature, 15 to 30 °C; higher is more volatile.
The Henry's law constant is on a log10 scale in atm·m3/mol (set defined at 25 °C); higher favours air over water.
The unbound fraction in human plasma runs from 0 (all bound) to 1 (all free).
Intrinsic clearance (human, µL/min per 10^6 hepatocytes): higher is faster turnover, and 0 stands for none detected.
"–" marks a cell with nothing listed here.

compound | melting point (°C) | bp (°C) | logP | log S (log10 mol/L) | log VP (log10 mmHg) | log H (log10 atm·m3/mol) | fu | intrinsic clearance (µL/min/10^6 cells)
CC(C)COP(=O)(OCC(C)C)OCC(C)C | – | – | 3.71 | -3.004 | -2.694 | – | – | –
CC(C)(c1ccc(OP(=O)(Oc2ccccc2)Oc2ccccc2)cc1)c1ccc(OP(=O)(Oc2ccccc2)Oc2ccccc2)cc1 | 13.5 | – | – | -6.222 | -5.061 | – | – | –
CN1C(=O)C(C)(C2=CCCCC2)C(=O)N=C1O (configuration not stated) | – | – | – | – | – | – | 0.5283 | 0
O=C(C(Cl)(Cl)Cl)C(Cl)(Cl)Cl | – | – | 2.59 | – | -0.775 | – | – | –
CCC(C)(NC(=O)c1cc(Cl)c(C)c(Cl)c1)C(=O)CCl (configuration not stated) | – | – | – | -5.69 | -7.008 | -7.187 | 0.008788 | 4.19
CC(Cl)(Cl)Cl | – | – | – | – | – | – | 0.6658 | 0.0238
CC(=O)[C@H](O)c1ccccc1 | – | – | 0.852 | – | -2.929 | – | – | –
CC(C)(C)OOC(C)(C)CCC(C)(C)OOC(C)(C)C | – | – | 7.34 | – | -4.882 | – | – | –
O=CNC(N1CCN(C(NC=O)C(Cl)(Cl)Cl)CC1)C(Cl)(Cl)Cl (configuration not stated) | 155 | – | – | – | – | -7.732 | – | –
O=C(NC(=O)c1c(F)cccc1F)Nc1cc(Cl)c(OC(F)(F)C(F)C(F)(F)F)c(Cl)c1F (configuration not stated) | – | – | 4.94 | -6.436 | -11.53 | – | – | –
CCNc1nc(Cl)nc(NCC)n1 | – | – | – | – | – | -9.258 | 0.2834 | 6.33
Cc1cc(C)c(C(=O)P(=O)(c2ccccc2)c2ccccc2)c(C)c1 | – | – | 3.1 | -4.756 | -7.792 | – | – | –
Fc1ccc(Oc2ccnc3cc(Cl)cc(Cl)c23)cc1 | – | – | – | – | – | -6.502 | – | 0
Oc1ccc(C(c2ccc(O)cc2)(C(F)(F)F)C(F)(F)F)cc1 | – | – | 2.79 | -3.18 | -7.255 | – | – | –
CCCCC(CC)COP(=S)([S-])OCC(C)C.CCCCC(CC)COP(=S)([S-])OCC(C)C.[Zn+2] (configuration not stated) | -10.15 | – | – | -2.958 | – | – | – | –
c1ccc2c(c1)Nc1ccccc1S2 | – | – | – | – | -6.314 | – | – | 0
O=C(O)c1c(Cl)ccc2cc(Cl)cnc12 | – | – | – | -6.57 | – | -6.435 | – | 0
CO/C=C(/C(=O)OC)c1ccccc1COc1cc(C(F)(F)F)nc(OC(C)C)n1 | – | – | – | -6.09 | -7.347 | – | – | –
CN(C)C(=O)c1cc2cnc(Cl)nc2n1C1CCCC1 | 88 | – | 2.4 | -2.709 | -6.663 | – | – | –
CC(=O)OCC1=C(C(=O)O)N2C(=O)[C@@H](N)[C@H]2SC1 | – | – | -3.4 | -2.649 | -6.718 | – | – | –
CCCCCCCC(=O)Cl | – | – | 2.76 | – | – | -6.05 | – | –
FC(C(F)C(F)(F)C(F)(F)F)C(F)(F)F (configuration not stated) | – | – | 2.7 | -3.883 | 2.354 | – | – | –
CCOCn1c(-c2ccc(Cl)cc2)c(C#N)c(Br)c1C(F)(F)F | – | – | – | – | -7.133 | -8.242 | – | –
CCCCCOC(=O)Cc1ccccc1 | -8.09 | – | – | -2.594 | – | – | – | –
Clc1ccc2c(c1)Oc1ccc(Cl)cc1O2 | 209 | – | – | -7.83 | -6.046 | – | – | –
CN(C)C(=S)[S-].CN(C)C(=S)[S-].[Zn+2] | – | – | 1.23 | – | -6.87 | – | – | –
CS(=O)(=O)c1ccc(C(=O)C2C(=O)CCCC2=O)c([N+](=O)[O-])c1 | – | – | – | – | – | – | 0.3541 | 0.35
O=[N+]([O-])c1ccc(O)c([N+](=O)[O-])c1 | – | – | – | -1.819 | – | – | 0.02723 | –
CCCCCC(CCC)COC(=O)c1ccccc1C(=O)OCC(CCC)CCCCC (configuration not stated) | -48 | – | – | – | -7.557 | – | – | –
COc1ncc(F)c2nc(S(=O)(=O)Nc3c(F)cccc3F)nn12 | 207.2 | – | – | -1.75 | – | – | – | –
CCOP(=S)(OCC)Oc1ccc([N+](=O)[O-])cc1 | – | – | – | -4.36 | – | – | – | 6.65
CNC(=O)ON=C(C)SC | – | – | – | – | – | – | 0.716 | 2.05
Oc1c(Br)cc(Br)cc1Br | – | – | – | -3.749 | -3.414 | – | – | –
Brc1cc(Br)c(Oc2cc(Br)c(Br)cc2Br)cc1Br | 163 | – | – | -8.869 | -7.188 | – | – | –
CC(C)OC(=O)[C@H](C)N[P@](=O)(Oc1ccccc1)Oc1c(F)c(F)c(F)c(F)c1F | – | 290 | 4.1 | -6.135 | -6.581 | – | – | –
Clc1ccc(-c2c(Cl)ccc(Cl)c2Cl)cc1 | – | – | 5.95 | – | -3.525 | – | – | –

The first 5 entries again:

compound	melting point (°C)	bp (°C)	logP	log S (log10 mol/L)	log VP (log10 mmHg)	log H (log10 atm·m3/mol)	fu	intrinsic clearance (µL/min/10^6 cells)
CC(C)COP(=O)(OCC(C)C)OCC(C)C	–	–	3.71	-3.004	-2.694	–	–	–
CC(C)(c1ccc(OP(=O)(Oc2ccccc2)Oc2ccccc2)cc1)c1ccc(OP(=O)(Oc2ccccc2)Oc2ccccc2)cc1	13.5	–	–	-6.222	-5.061	–	–	–
CN1C(=O)C(C)(C2=CCCCC2)C(=O)N=C1O (configuration not stated)	–	–	–	–	–	–	0.5283	0
O=C(C(Cl)(Cl)Cl)C(Cl)(Cl)Cl	–	–	2.59	–	-0.775	–	–	–
CCC(C)(NC(=O)c1cc(Cl)c(C)c(Cl)c1)C(=O)CCl (configuration not stated)	–	–	–	-5.69	-7.008	-7.187	0.008788	4.19